Amino acid sequences for entries named in this document (tags omitted).
UniProt Q96P20, whole entry: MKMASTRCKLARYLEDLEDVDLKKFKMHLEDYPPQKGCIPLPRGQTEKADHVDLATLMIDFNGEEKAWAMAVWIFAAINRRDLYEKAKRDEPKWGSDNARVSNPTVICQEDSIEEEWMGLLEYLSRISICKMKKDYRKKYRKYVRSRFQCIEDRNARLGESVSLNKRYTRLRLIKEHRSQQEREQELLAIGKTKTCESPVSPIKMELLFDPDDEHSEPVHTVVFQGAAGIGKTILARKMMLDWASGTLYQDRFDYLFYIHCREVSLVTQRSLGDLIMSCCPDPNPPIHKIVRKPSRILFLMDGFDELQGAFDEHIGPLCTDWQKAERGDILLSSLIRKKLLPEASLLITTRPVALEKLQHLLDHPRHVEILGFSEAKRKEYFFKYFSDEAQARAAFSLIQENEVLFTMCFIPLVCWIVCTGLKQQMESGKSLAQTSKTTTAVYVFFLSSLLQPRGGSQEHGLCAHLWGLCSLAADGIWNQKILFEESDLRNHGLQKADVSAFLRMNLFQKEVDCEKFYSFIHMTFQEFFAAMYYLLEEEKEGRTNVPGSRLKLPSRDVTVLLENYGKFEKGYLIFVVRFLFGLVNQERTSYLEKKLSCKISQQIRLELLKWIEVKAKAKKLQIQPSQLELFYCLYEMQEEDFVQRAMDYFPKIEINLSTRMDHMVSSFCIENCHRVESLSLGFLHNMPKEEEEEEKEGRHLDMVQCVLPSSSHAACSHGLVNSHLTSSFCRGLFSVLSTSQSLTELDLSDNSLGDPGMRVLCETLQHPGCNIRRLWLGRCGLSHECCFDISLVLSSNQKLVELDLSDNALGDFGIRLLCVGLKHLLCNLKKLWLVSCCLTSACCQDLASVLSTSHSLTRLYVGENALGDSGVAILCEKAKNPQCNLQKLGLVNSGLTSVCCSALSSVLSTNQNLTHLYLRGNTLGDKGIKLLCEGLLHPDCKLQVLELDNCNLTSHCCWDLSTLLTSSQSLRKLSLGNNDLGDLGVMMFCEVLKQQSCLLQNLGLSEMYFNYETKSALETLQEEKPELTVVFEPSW

According to patent EP4671247A1, “SUBSTITUTED PYRAZOLOPYRIMIDINE COMPOUND AND PHARMACEUTICAL USE THEREOF” (Japan Tobacco Inc., priority 2023, dated 2024):

Molecular target: NLRP3 inflammasome (Homo sapiens, UniProt Q96P20)
Test: Evaluation of NLRP3 inflammasome inhibitory activity (inhibition of IL-1β production in LPS/Nigericin-stimulated THP1-Null cells, AlphaLISA)
Details: IL-1β production in THP1-Null cells; PMA, 1 µg/mL Lipopolysaccharides 3 hours, Nigericin 7.5 µmol/L 1.5 hours

Cc1cc(Br)cc(C)c1-n1cc2c(=O)[nH]c(C34CCOC(CO3)C4)nc2n1 (racemic)
IC50: 180 nM
